scFv variants of Ab-14 (heavy chain) against a SARS-CoV-2 spike peptide

Values reported by Li et al. 2023, doi:10.1038/s41467-023-39022-2 (FLAb copy).

Binding partner: SARS-CoV-2 spike HR2 peptide, sequence PDVDLGDISGINAS.

Parent: Ab-14, a human scFv built as VH, three GGGGS repeats, VL. Only the CDRs of the heavy chain vary.
VH: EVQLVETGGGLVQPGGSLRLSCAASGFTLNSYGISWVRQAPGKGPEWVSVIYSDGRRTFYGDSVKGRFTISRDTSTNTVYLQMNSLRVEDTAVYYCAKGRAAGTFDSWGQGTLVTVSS
VL: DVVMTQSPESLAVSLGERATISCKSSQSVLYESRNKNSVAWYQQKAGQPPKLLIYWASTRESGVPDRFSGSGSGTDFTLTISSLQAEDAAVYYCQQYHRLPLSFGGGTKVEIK

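The starting antibody came from a phage panning campaign against this peptide. Designed CDR sequences, proposed from the first random library and measured here. Group labels follow the data file (Ctrl: baseline library sampled from a position-specific scoring matrix, with some repeated check sequences; GPLM: also part of the Gaussian process libraries; Gen: genetic algorithm; a sequence that several methods proposed may carry one label only). In AlphaSeq, yeast of one mating type display the scFv and yeast of the other type display the target. After mating in shaken culture at 30 °C for 16 h, diploids were selected and their barcode pairs sequenced. Scores were corrected for input abundance and mapped to Kd with protein pairs of known affinity run in the same pool. There are six technical replicates.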

Positions count from residue 1 of the parent VH; S31M puts M in place of S.
Numbers give log10(Kd / nM), so 0 is 1 nM and 3 is 1 µM. Smaller is tighter.
Where no diploid with the target was found in that replicate, the entry reads "n.d.": below detection, most likely a poor binder, though not proof of it.
A sequence measured in both rounds can read differently, since the two assays cover different ranges.

changes | group | log10 Kd, replicates | signal with controls
S31M/G61S/A101W | Ctrl | 1.51 / 1.00 / 1.69 / 1.39 / 1.67 / 1.66 | 0/18
S31E/F59S/T104Q/S107E | Ctrl | n.d. / n.d. / n.d. / n.d. / n.d. / n.d. | 0/18
T28Q/S31D/T104S/F105I | Ctrl | 1.84 / 2.11 / 1.86 / 1.30 / 1.77 / 1.41 | 0/18
T28D/F59M/K65V/R100V/A102C | Ctrl | 2.49 / 1.45 / 1.50 / 2.58 / 2.27 / 1.59 | 0/18
F59I/G103H | Ctrl | n.d. / n.d. / n.d. / n.d. / n.d. / n.d. | 0/18
S31E/F59A/A101V | Ctrl | -0.74 / -0.09 / -0.86 / -0.51 / -0.54 / -0.67 | 0/18
F27V/D62N/G103V/S107D | Ctrl | n.d. / n.d. / n.d. / n.d. / n.d. / n.d. | 0/18
T28N/I34R/T104L | Ctrl | n.d. / n.d. / n.d. / n.d. / n.d. / n.d. | 0/18
A101I/T104R/D106R/S107T | Ctrl | n.d. / n.d. / n.d. / n.d. / n.d. / n.d. | 0/18
T28N/V50F/R56Q/T58V/F59S/G61R/D62G/S63D/G103V | Ctrl | n.d. / n.d. / n.d. / n.d. / n.d. / n.d. | 0/18
N30E/G103T | Ctrl | n.d. / n.d. / n.d. / n.d. / n.d. / n.d. | 0/18
A102Y/T104Y | Ctrl | n.d. / n.d. / n.d. / n.d. / n.d. / n.d. | 0/18
R100S/A101E | Ctrl | 0.48 / 0.76 / 0.14 / 0.70 / 0.37 / 0.43 | 0/18
F27N/S53A | Ctrl | -0.26 / 0.35 / -0.44 / 1.15 / -0.25 / -0.20 | 0/18
S31L/F59M/A102E | Ctrl | n.d. / n.d. / n.d. / n.d. / n.d. / n.d. | 0/18
R100Q/A101L/D106M | Ctrl | n.d. / n.d. / n.d. / n.d. / n.d. / n.d. | 0/18
T28E/S53A/A101N | Ctrl | n.d. / n.d. / n.d. / n.d. / n.d. / n.d. | 0/18
R56F/G61Q/G103K | Ctrl | n.d. / n.d. / n.d. / n.d. / n.d. / n.d. | 1/18 (2.79)
A101R/A102V | Ctrl | n.d. / n.d. / n.d. / n.d. / n.d. / n.d. | 1/18 (2.77)
R56K/A101N/A102G/T104R/D106P | Ctrl | n.d. / n.d. / n.d. / n.d. / n.d. / n.d. | 1/18 (-0.44)
S53A/G61D/S63Q | Ctrl | 0.43 / 0.58 / 0.54 / 0.42 / 0.48 / 0.47 | 0/18
I34V/G61I/R100T/A101T | Ctrl | 0.32 / 1.43 / 0.50 / 0.47 / 0.55 / 0.58 | 1/18 (2.37)
R56W/F59A/D106H/S107T | Ctrl | n.d. / n.d. / n.d. / n.d. / n.d. / n.d. | 0/18
G26K/A101N | Ctrl | n.d. / n.d. / n.d. / n.d. / n.d. / 2.28 | 0/18
R56K/G103V | Ctrl | n.d. / n.d. / n.d. / n.d. / n.d. / n.d. | 0/18
Y32C/G61I/G99C/A101V/T104V/D106V | Ctrl | n.d. / n.d. / n.d. / n.d. / n.d. / n.d. | 0/18
L29M/S31E/D106T | Ctrl | n.d. / n.d. / n.d. / n.d. / n.d. / n.d. | 0/18
F27I/S31D/D106H | Ctrl | n.d. / n.d. / n.d. / n.d. / n.d. / n.d. | 0/18
Y32H/G61A | Ctrl | n.d. / n.d. / n.d. / n.d. / n.d. / n.d. | 0/18
S31E/G61A/A101F/A102S | Ctrl | 1.01 / 1.41 / 1.41 / 1.42 / 1.67 / 1.53 | 0/18
D106P/S107L | Ctrl | n.d. / n.d. / n.d. / n.d. / n.d. / n.d. | 0/18
G61K/R100T/F105G | Ctrl | n.d. / 1.46 / n.d. / n.d. / n.d. / n.d. | 0/18
G55Y | Ctrl | n.d. / n.d. / n.d. / n.d. / n.d. / n.d. | 0/18
F59A/S107W | Ctrl | n.d. / 2.45 / n.d. / n.d. / n.d. / n.d. | 0/18
T28K/F59A/S107T | Ctrl | 1.16 / 2.19 / 1.37 / 1.10 / 2.53 / 1.36 | 0/18
S53A/R100G | Ctrl | -0.32 / -0.45 / -0.22 / -0.35 / -0.29 / -0.11 | 0/18
S31E/G61S/G99C/R100E | Ctrl | n.d. / n.d. / n.d. / n.d. / n.d. / n.d. | 0/18
N30Q/S31D/S53A/A101S | Ctrl | -0.20 / -0.26 / -0.32 / -0.30 / -0.07 / -0.11 | 0/18
S53A/S107M | Ctrl+GPLM_Gen | n.d. / 1.27 / n.d. / 1.73 / n.d. / n.d.; 0.77 / 0.63 / 0.22 / 0.38 / 0.43 / 0.51 | 0/36
F27E/T28E/N30Q/A101L | Ctrl | 2.00 / 2.68 / n.d. / n.d. / n.d. / n.d. | 0/18
G99W/S107K | Ctrl | n.d. / n.d. / n.d. / n.d. / n.d. / n.d. | 0/18
T28G/S63R/R100Q/A101F/F105K | Ctrl | n.d. / n.d. / n.d. / n.d. / n.d. / n.d. | 0/18
L29I/S31E | Ctrl | 1.05 / 0.98 / 0.90 / 0.59 / 0.79 / 0.65 | 2/18 (2.30)
G26K/A101G | Ctrl | n.d. / n.d. / n.d. / n.d. / 2.91 / 1.71 | 0/18
S31E/S63A | Ctrl | 1.14 / -0.54 / 0.04 / 0.28 / 0.00 / -0.21 | 1/18 (1.45)
Y32Q/A101F/A102H/T104P/D106W | Ctrl | n.d. / n.d. / n.d. / n.d. / n.d. / n.d. | 0/18
S31E/G61N/R100T/A101E | Ctrl | 0.66 / 0.90 / -0.20 / 0.98 / 0.16 / 1.49 | 0/18
Y52I/A102I | Ctrl | n.d. / n.d. / n.d. / n.d. / n.d. / n.d. | 0/18
L29I/S31Q/G99T/F105I/S107T | Ctrl | n.d. / n.d. / n.d. / n.d. / n.d. / n.d. | 0/18
G103F/D106F | Ctrl | n.d. / n.d. / n.d. / n.d. / n.d. / n.d. | 0/18
G26D/A102K | Ctrl | n.d. / n.d. / n.d. / n.d. / n.d. / n.d. | 0/18

From the list, the first 4 with no signal in any replicate:

{"changes": "S31E/F59S/T104Q/S107E", "group": "Ctrl", "log10 Kd, replicates": "n.d. / n.d. / n.d. / n.d. / n.d. / n.d.", "signal with controls": "0/18"}
{"changes": "F59I/G103H", "group": "Ctrl", "log10 Kd, replicates": "n.d. / n.d. / n.d. / n.d. / n.d. / n.d.", "signal with controls": "0/18"}
{"changes": "F27V/D62N/G103V/S107D", "group": "Ctrl", "log10 Kd, replicates": "n.d. / n.d. / n.d. / n.d. / n.d. / n.d.", "signal with controls": "0/18"}
{"changes": "T28N/I34R/T104L", "group": "Ctrl", "log10 Kd, replicates": "n.d. / n.d. / n.d. / n.d. / n.d. / n.d.", "signal with controls": "0/18"}

The parent sequence was in this pool as ten entries: three were never detected, three once, and four in most replicates, with averages from 0.34 to 2.37.
Background: pairings of all heavy chain designs with three empty control strains gave a value in 1% of cases (median 2.08, 5th percentile 0.84). Values in that range, when seen in few replicates, are hard to tell from nonspecific mating. Also given: how often the same scFv was detected with the empty control strains, with their mean in brackets.
In the paper, a design with two or fewer of six values counts as a poor binder.
Some sequences occur more than once in the pool; their replicates are listed entry by entry, parted by semicolons.